Literature values as cited in patent US12220419B2, “BCL-2 inhibitors” (Newave Pharmaceutical Inc., priority 2018, dated 2025).
pKi: −log10 of the molar value.

Amino acid sequences for entries named in this document (tags omitted).
UniProt P10415, whole entry: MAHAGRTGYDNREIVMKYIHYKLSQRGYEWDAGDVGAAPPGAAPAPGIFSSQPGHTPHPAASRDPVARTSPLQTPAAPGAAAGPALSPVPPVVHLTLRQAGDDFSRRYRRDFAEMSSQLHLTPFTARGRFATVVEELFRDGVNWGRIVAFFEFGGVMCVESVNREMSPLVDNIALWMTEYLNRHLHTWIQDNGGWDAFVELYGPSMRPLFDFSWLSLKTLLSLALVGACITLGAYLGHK

Biological target: BCL-2 (Homo sapiens (Human), UniProt P10415)
Settings: cited from earlier work

For CC1(C)CCC(c2ccc(Cl)cc2)=C(CN2CCN(c3ccc(C(=O)NS(=O)(=O)c4ccc(N[C@H](CCN5CCOCC5)CSc5ccccc5)c(S(=O)(=O)C(F)(F)F)c4)cc3)CC2)C1 [ABT-263], the pKi is listed as ≥ 9.00.
